Reference: PMC12363342, “Investigating the N-terminal linker histone H1 subtypes as substrates for JmjC lysine demethylases” (RSC Chemical Biology, 2025)

Tests used:
Conditions in all cases: room temperature
KDM3A = experiment: LC-MS demethylation activity assay, KDM3A; type: biochemical, human
Method: (§1) The substrate specificity of JmjC KDMs for H1 was examined using liquid chromatography coupled to mass spectrometry (LC-MS) assays. The H1 peptides (10 μM) were incubated with the recombinant KDM (2 μM) in HEPES buffer at pH 7.5 at room temperature for 2 h, in the presence of ferrous(II) ammonium sulfate (FAS, 10 μM), sodium ascorbate (LAA, 100 μM) and 2OG (20 μM), and then quenched with formic acid. N^ε-Methylated H3K9 and H3K36 peptides were used as positive controls (Fig. 3–5 and Fig. S2–S6).[26]
(§2) The catalytic domains of the JmjC KDMs used were recombinantly produced as reported in either Escherichia coli (KDM4AM1-L359,[38] KDM4DM1-L359,[39] KDM4EM1-R336,[30] KDM6BD1141–E1590[40] and KDM3CL2157-L2500) or Sf9 cells (KDM3AT515–S1317, KDM3B882–1761, and KDM5DM1-D775) as N-terminally His6-tagged proteins. […] To produce proteins, DNA sequences encoding for KDM3A, KDM3B and KDM5D were inserted into the pFB-LIC vector, containing a TEV-protease cleavable N-terminal 6x-histidine tag via ligation independent cloning (LIC). The resultant plasmids were transformed into baculovirus and Sf9 cells ([…]) which were infected with the virus stock. The cells were grown at 27 °C and 90 rpm for 70 h. Cells were then harvested and suspended in 100 mL of lysis buffer (50 mM HEPES-NaOH, pH 7.4, 500 mM NaCl, 20 mM imidazole, 0.5 mM Tris (2-carboxyethyl)phosphine (TCEP), 5% (v/v) glycerol). […] The supernatant was loaded onto a Ni-NTA gravity column, washed with 10 column volume of lysis buffer and eluted using the elution buffer (50 mM HEPES-NaOH, pH 7.4, 500 mM NaCl, 300 mM imidazole, 0.5 mM TCEP, 5% (v/v) glycerol). The eluted protein was further purified using S200 gel filtration column chromatography (50 mM HEPES-NaOH, pH 7.4, 150 mM NaCl, 0.5 mM TCEP and 5% glycerol). Protein purity was analysed by SDS-PAGE and further confirmed by mass spectrometry. Selected fractions were pooled, concentrated and stored at −80 °C.
(§3) All reagents were purchased from Sigma Aldrich and were of the highest grade available. Ferrous(II) ammonium sulfate (FAS) solutions were prepared freshly by dissolving FAS to 400 mM in 20 mM HCl with subsequent dilution to 1 mM using deionized water. Fresh 2OG (10 mM) and LAA (50 mM) solutions were prepared by dissolving the solids in deionised water. All enzyme reactions were performed in 384-well plates (Greiner Bio-One) with a final reaction volume of 50 μL. Substrate mixtures contained 50 mM HEPES pH 7.5, LAA (100 μM), FAS (10 μM), 2OG (20 μM) and an H1 isoform peptide (10 μM). Reactions were initiated by the addition of enzyme to a final concentration of 2.0 μM. After 2 h, the reactions were stopped by the addition of 5 μL of 10% (v/v) LC-MS grade formic acid (Fisher Scientific) to a final concentration of 1% (v/v). […]

KDM3B = experiment: LC-MS demethylation activity assay, KDM3B; type: biochemical, human
Method: as §1, §2, §3

KDM3C = experiment: LC-MS demethylation activity assay, KDM3C; type: biochemical, human
Method: as §1, §2, §3

KDM4A = experiment: LC-MS demethylation activity assay, KDM4A; type: biochemical, human
Method: as §1, §2
(§4) All reagents were purchased from Sigma Aldrich and were of the highest grade available. Ferrous(II) ammonium sulfate (FAS) solutions were prepared freshly by dissolving FAS to 400 mM in 20 mM HCl with subsequent dilution to 1 mM using deionized water. Fresh 2OG (10 mM) and LAA (50 mM) solutions were prepared by dissolving the solids in deionised water. All enzyme reactions were performed in 384-well plates (Greiner Bio-One) with a final reaction volume of 50 μL. Substrate mixtures contained 50 mM HEPES pH 7.5, LAA (100 μM), FAS (10 μM), 2OG (20 μM) and an H1 isoform peptide (10 μM). Reactions were initiated by the addition of enzyme to a final concentration of 2.0 μM. After 2 h, the reactions were stopped by the addition of 5 μL of 10% (v/v) LC-MS grade formic acid (Fisher Scientific) to a final concentration of 1% (v/v). Product analyses were performed by liquid chromatography-mass spectrometry (LC-MS) using an Agilent 1290 infinity II LC system equipped with an Agilent 1290 multisampler and an Agilent 1290 high speed pump and connected to an Agilent 6550 accurate mass iFunnel quadrupole time of flight (Q-TOF) mass spectrometer. 1 μL of the reaction mixture was injected onto a 1.8 μm × 2.1 × 50 mm ZORBAX RRHD Eclipse Plus C18 column (Agilent). Solvent A consisted of HPLC grade water containing 0.1% (v/v) formic acid and solvent B consisted of MeCN containing 0.1% (v/v) formic acid. Peptides were separated using a stepwise gradient (0 min – 95% solvent A, 1.0 min – 80% solvent A, 3.0 min – 45% solvent A, 4.0 min – 45% solvent A, 5.0 min – 0% solvent A, 6.0 min – 0% solvent A, 7.0 min – 95% solvent A). This was followed by a 3 min post-run with 95% solvent A to re-equilibrate the column. All flow rates were 0.2 mL min^−1.

KDM4D = target: T1, KDM4D (Homo sapiens, UniProt Q6B0I6); experiment: LC-MS demethylation activity assay, KDM4D; type: biochemical
T1 construct: KDM4AM1-L359,[38]; KDM4DM1-L359,[39]; KDM4EM1-R336,[30]; His6 (N); made in house; host or cells: Escherichia coli
T1 sequence (Q6B0I6 1-359): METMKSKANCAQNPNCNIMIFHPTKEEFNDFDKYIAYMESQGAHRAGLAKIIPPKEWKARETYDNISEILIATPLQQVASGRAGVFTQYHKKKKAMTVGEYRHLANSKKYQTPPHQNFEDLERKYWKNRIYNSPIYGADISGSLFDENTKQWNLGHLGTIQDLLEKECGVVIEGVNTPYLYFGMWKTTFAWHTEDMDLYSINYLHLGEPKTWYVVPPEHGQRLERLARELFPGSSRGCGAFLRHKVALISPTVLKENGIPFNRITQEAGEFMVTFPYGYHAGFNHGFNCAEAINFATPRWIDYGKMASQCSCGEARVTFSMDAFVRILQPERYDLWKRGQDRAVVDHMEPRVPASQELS
Method: as §1, §2, §4

KDM4E = target: T2, KDM4E (Homo sapiens, UniProt B2RXH2); experiment: LC-MS demethylation activity assay, KDM4E; type: biochemical
T2 construct: KDM4DM1-L359,[39]; KDM4EM1-R336,[30]; His6 (N); made in house; host or cells: Escherichia coli
T2 sequence (B2RXH2 1-336): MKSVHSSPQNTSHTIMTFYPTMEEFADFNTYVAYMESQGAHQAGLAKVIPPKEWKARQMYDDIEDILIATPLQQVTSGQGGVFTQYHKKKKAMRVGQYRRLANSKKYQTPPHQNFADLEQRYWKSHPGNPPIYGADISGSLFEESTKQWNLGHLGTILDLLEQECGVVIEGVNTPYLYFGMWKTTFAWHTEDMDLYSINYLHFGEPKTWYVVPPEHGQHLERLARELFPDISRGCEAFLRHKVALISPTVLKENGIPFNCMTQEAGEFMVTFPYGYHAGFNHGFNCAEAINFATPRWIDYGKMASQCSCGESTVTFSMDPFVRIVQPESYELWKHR
Method: as §1, §2, §4

KDM5D = experiment: LC-MS demethylation activity assay, KDM5D; type: biochemical, human
Method: as §1, §2, §3

KDM6B = experiment: LC-MS demethylation activity assay, KDM6B; type: biochemical, human
Method: as §1, §2, §3

[1] = 2 μM KDM, 10 μM H1/H3 peptide, 10 μM FAS, 100 μM LAA, 20 μM 2OG, 50 mM HEPES pH 7.5, 2 h, D (di-) initial methylation state
[2] = 2 μM KDM4E, 10 μM peptide, standard conditions, 2 h
[3] = 2 μM KDM, 10 μM H1/H3 peptide, 10 μM FAS, 100 μM LAA, 20 μM 2OG, 50 mM HEPES pH 7.5, 2 h, M (mono-) initial methylation state

ARTKQTARKme2STGGKA [Peptide H3K9me2, histone H3 residues 1-15 peptide with di-methylated K9; positive control, reference compound]
KDM3A demethylation activity, D (KDM3A; [1]): ● [green] (green dots indicate good demethylation (>50% conversion)) | KDM3B demethylation activity, D (KDM3B; [1]): ● [green] (green dots indicate good demethylation (>50% conversion)) | KDM3C demethylation activity, D (KDM3C; [1]): ● [red] | substrate conversion (demethylation) by KDM4A (KDM4A; 2 μM KDM4A, 10 μM peptide, 10 μM FAS, 100 μM LAA, 20 μM 2OG, HEPES pH 7.5, 2 h): ~36% | KDM4A demethylation activity, D (KDM4A; [1]): ● [yellow] (yellow dots indicate moderate demethylation (<50% conversion)) | substrate conversion (demethylation) by KDM4D (KDM4D; 2 μM KDM4D, 10 μM peptide, 10 μM FAS, 100 μM LAA, 20 μM 2OG, HEPES pH 7.5, 2 h): ~58% | KDM4D demethylation activity, D (KDM4D; [1]): ● [green] (green dots indicate good demethylation (>50% conversion)) | mono-methylated product formed by KDM4E (KDM4E; [2]): ~64% | KDM4E demethylation activity, D (KDM4E; [1]): ● [green] (green dots indicate good demethylation (>50% conversion)) | KDM5D demethylation activity, D (KDM5D; [1]): ● [red] | KDM6B demethylation activity, D (KDM6B; [1]): ● [red]

ARTKQTARKmeSTGGKA [Peptide H3K9me, histone H3 residues 1-15 peptide with mono-methylated K9; positive control, reference compound]
KDM3A demethylation activity, in words (KDM3A; 2 μM KDM3A, 10 μM peptide, standard conditions, 2 h): excellent activity | KDM3A demethylation activity, M (KDM3A; [3]): ● [green] (green dots indicate good demethylation (>50% conversion)) | KDM3B demethylation activity, in words (KDM3B; 2 μM KDM3B, 10 μM peptide, standard conditions, 2 h): excellent activity | KDM3B demethylation activity, M (KDM3B; [3]): ● [green] (green dots indicate good demethylation (>50% conversion)) | KDM3C demethylation activity, in words (KDM3C; 2 μM KDM3C, 10 μM peptide, standard conditions, 2 h): lack of activity | KDM3C demethylation activity, M (KDM3C; [3]): ● [red] | KDM4A demethylation activity, in words (KDM4A; 2 μM KDM4A, 10 μM peptide, standard conditions, 2 h): lack of activity | KDM4A demethylation activity, M (KDM4A; [3]): ● [red] | KDM4D demethylation activity, in words (KDM4D; 2 μM KDM4D, 10 μM peptide, standard conditions, 2 h): lack of activity | KDM4D demethylation activity, M (KDM4D; [3]): ● [red] | KDM4E demethylation activity, in words (KDM4E; [2]): lack of activity | KDM5D demethylation activity, in words (KDM5D; 2 μM KDM5D, 10 μM peptide, standard conditions, 2 h): lack of activity | KDM5D demethylation activity, M (KDM5D; [3]): ● [red] | KDM6B demethylation activity, in words (KDM6B; 2 μM KDM6B, 10 μM peptide, standard conditions, 2 h): lack of activity | KDM6B demethylation activity, M (KDM6B; [3]): ● [red]
